Experimental data: US9365575B2, “Kinase inhibitors” (Allergan, Inc., priority 2012, dated 2016)

Sequences of proteins named here, by UniProt entry; tags and fusion partners are left off. Residues count along the entry.
UniProt P35968, 786-1356: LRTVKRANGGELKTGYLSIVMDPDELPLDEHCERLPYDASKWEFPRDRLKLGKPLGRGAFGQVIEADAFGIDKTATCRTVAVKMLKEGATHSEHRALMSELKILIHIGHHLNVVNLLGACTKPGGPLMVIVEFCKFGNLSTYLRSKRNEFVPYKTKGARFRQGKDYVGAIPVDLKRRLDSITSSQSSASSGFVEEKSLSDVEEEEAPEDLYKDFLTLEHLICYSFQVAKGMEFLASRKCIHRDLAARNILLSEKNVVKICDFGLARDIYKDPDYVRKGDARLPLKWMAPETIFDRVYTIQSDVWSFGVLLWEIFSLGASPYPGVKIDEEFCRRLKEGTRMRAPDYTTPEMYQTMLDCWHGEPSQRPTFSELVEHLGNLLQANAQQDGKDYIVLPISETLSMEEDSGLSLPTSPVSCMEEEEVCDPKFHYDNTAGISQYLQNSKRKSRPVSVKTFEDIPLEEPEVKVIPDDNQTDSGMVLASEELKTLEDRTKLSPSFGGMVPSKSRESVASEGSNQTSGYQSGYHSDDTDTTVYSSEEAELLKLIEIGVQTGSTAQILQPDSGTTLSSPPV

Biological target: VEGFR2 (Homo sapiens (Human), UniProt P35968)
Test: VEGFR2 Kinase Assay (biochemical KDR kinase assay, poly-Glu-Tyr ELISA)
Conditions: purified cytoplasmic domain KDR protein, 2.7 μM ATP, 15 minute incubation at 30° C.; read-out: VEGFR2 Enzyme IC50
Description: Biochemical KDR kinase assays were performed in 96 well microtiter plates that were coated overnight with 75 μg/well of poly-Glu-Tyr (4:1) in 10 mM Phosphate Buffered Saline (PBS), pH 7.4. The coated plates were washed with 2 mLs per well PBS+0.05% Tween-20 (PBS-T), blocked by incubation with PBS containing 1% BSA, then washed with 2 mLs per well PBS-T prior to starting the reaction. Reactions were carried out in 100 μL reaction volumes containing 2.7 μM ATP in kinase buffer (50 mM Hepes buffer pH 7.4, 20 mM MgCl2, 0.1 mM MnCl2 and 0.2 mM Na3VO4). Test compounds were reconstituted in 100% DMSO and added to the reaction to give a final DMSO concentration of 5%. Reactions were initiated by the addition 20 ul per well of kinase buffer containing 200-300 ng purified cytoplasmic domain KDR protein (BPS Bioscience, San Diego, Calif.). Following a 15 minute incubation at 30° C., the reactions were washed 2 mLs per well PBS-T. 100 μl of a monoclonal anti-phosphotyrosine antibody-peroxidase conjugate diluted 1:10,000 in PBS-T was added to the wells for 30 minutes. […] The reaction was terminated by the addition of 100 μl of 2.5N H2SO4 to each well and read using a microplate ELISA reader set at 492 nm. IC50 values for compound inhibition were calculated directly from graphs of optical density (arbitrary units) versus compound concentration following subtraction of blank values.

- IC50: > 10 µM
Structure (SMILES): CC(C)NC(=O)Nc1ccc(C2CN=C3c4ccccc4NC(=O)N3C2)cc1 (stereo not shown) [Example 14, 1-Isopropyl-3-[4-(6-oxo-3,4,6,7-tetrahydro-2H-pyrimido[1,2-c]quinazolin-3-yl)phenyl]urea]
